# From patent US12109179B2, “Pharmaceutical compositions and combinations comprising inhibitors of the androgen receptor and uses thereof” (ESSA Pharma Inc., priority 2019, dated 2024)
# Test system: PSA, UBE2C, FKBP5, CYCLIN A2, TMPRSS2, and CDC20 transcripts
# Test: Transcript levels of FL-AR and AR-V7 regulated genes in C4-2B-MDVR
# Format: cell-based, human
# From the text: Compound 13a decreased transcript expression of the M-phase cell cycle genes UBE2C, CYCLIN A2, CDC20 and PSA, FKBP5, and CDC20 (FIGS. 7B, 7D, and 7F).
structure (smiles),measurement,setting,value
"CNC(=O)c1ccc(N2C(=S)N(c3ccc(C#N)c(C(F)(F)F)c3)C(=O)C2(C)C)cc1F [Enzalutamide, enzalutamide]",expression of CDCl2O,,no effect
same,expression of UBE2C and cyclin A2,in the presence of androgen,increased
